Measurements from patent US4479951A, “1.4;3.6-Dianhydrohexitol nitrates substituted by purine bases, processes for their preparation and pharmaceutical compositions” (Dr. Willmar Schwabe GmbH & Co., priority 1980, dated 1984).

Tested on: mongrel dogs
Assay: circulatory-pharmacological effectiveness on the narcotised dog, intravenous administration
Assay type: in vivo

## O=[N+]([O-])O[C@H]1CO[C@H]2[C@@H]1OC[C@H]2O[N+](=O)[O-]
40 min after i.v. 1 mg/kg
  APdiast: diastolic aorta pressure: 101.2 mm.Hg
  APsyst: systolic aorta pressure: 158.4 mm.Hg
  BFFem: blood flow in the A. femoralis, referred to 20 kg. body weight: 42.9 mL/min
  HF: heart frequency: 108.0 min⁻¹
  HLL: heart capacity left, referred to 20 kg. body weight: 0.76 W
  HLR: heart capacity right, referred to 20 kg. body weight: 80.5 mW
  HZV: heart minute volume, referred to 20 kg. body weight: 3.0 min⁻¹
  LVEDP: end diastolic pressure in the left ventricle: 7.60 mm.Hg
  PAP: average pressure in the A. pulmonalis: 14.0 ±1.5 mm.Hg
  PRA: pressure in the right atrium: 2.34 mm.Hg
  SV: beat volume, referred to 20 kg. body weight: 27.7 mL
  WAP: pulmonalis resistance, referred to 20 kg. body weight: 0.28 U
  WFem: femoralis resistance, referred to 20 kg. body weight: 0.40 KU
  WTP: total peripheral resistance, referred to 20 kg. body weight: 5.41 U
  dp/dt: rate of pressure increase in the left ventricle: 2343.7 mm.Hg/sec.
50 min after i.v. 1 mg/kg
  APdiast: diastolic aorta pressure: 101.2 mm.Hg
  APsyst: systolic aorta pressure: 157.5 mm.Hg
  BFFem: blood flow in the A. femoralis, referred to 20 kg. body weight: 43.9 mL/min
  HF: heart frequency: 109.2 min⁻¹
  HLL: heart capacity left, referred to 20 kg. body weight: 0.77 W
  HLR: heart capacity right, referred to 20 kg. body weight: 81.1 mW
  HZV: heart minute volume, referred to 20 kg. body weight: 3.0 min⁻¹
  LVEDP: end diastolic pressure in the left ventricle: 7.60 mm.Hg
  PAP: average pressure in the A. pulmonalis: 14.0 ±1.6 mm.Hg
  PRA: pressure in the right atrium: 2.29 mm.Hg
  SV: beat volume, referred to 20 kg. body weight: 27.4 mL
  WAP: pulmonalis resistance, referred to 20 kg. body weight: 0.27 U
  WFem: femoralis resistance, referred to 20 kg. body weight: 0.39 KU
  WTP: total peripheral resistance, referred to 20 kg. body weight: 5.38 U
  dp/dt: rate of pressure increase in the left ventricle: 2306.2 mm.Hg/sec.
60 min after i.v. 1 mg/kg
  APdiast: diastolic aorta pressure: 101.2 mm.Hg
  APsyst: systolic aorta pressure: 159.4 mm.Hg
  BFFem: blood flow in the A. femoralis, referred to 20 kg. body weight: 42.3 mL/min
  HF: heart frequency: 107.5 min⁻¹
  HLL: heart capacity left, referred to 20 kg. body weight: 0.78 W
  HLR: heart capacity right, referred to 20 kg. body weight: 81.9 mW
  HZV: heart minute volume, referred to 20 kg. body weight: 3.0 min⁻¹
  LVEDP: end diastolic pressure in the left ventricle: 7.77 mm.Hg
  PAP: average pressure in the A. pulmonalis: 14.1 mm.Hg
  PRA: pressure in the right atrium: 2.53 mm.Hg
  SV: beat volume, referred to 20 kg. body weight: 28.2 mL
  WAP: pulmonalis resistance, referred to 20 kg. body weight: 0.26 U
  WFem: femoralis resistance, referred to 20 kg. body weight: 0.41 KU
  WTP: total peripheral resistance, referred to 20 kg. body weight: 5.32 U
  dp/dt: rate of pressure increase in the left ventricle: 2250.0 mm.Hg/sec.
90 min after i.v. 1 mg/kg
  APdiast: diastolic aorta pressure: 99.4 mm.Hg
  APsyst: systolic aorta pressure: 163.2 mm.Hg
  BFFem: blood flow in the A. femoralis, referred to 20 kg. body weight: 44.4 mL/min
  HF: heart frequency: 109.5 min⁻¹
  HLL: heart capacity left, referred to 20 kg. body weight: 0.77 W
  HLR: heart capacity right, referred to 20 kg. body weight: 85.4 mW
  HZV: heart minute volume, referred to 20 kg. body weight: 3.0 min⁻¹
  LVEDP: end diastolic pressure in the left ventricle: 7.98 mm.Hg
  PAP: average pressure in the A. pulmonalis: 14.6 ±1.8 mm.Hg
  PRA: pressure in the right atrium: 2.53 mm.Hg
  SV: beat volume, referred to 20 kg. body weight: 27.7 mL
  WAP: pulmonalis resistance, referred to 20 kg. body weight: 0.27 U
  WFem: femoralis resistance, referred to 20 kg. body weight: 0.38 KU
  WTP: total peripheral resistance, referred to 20 kg. body weight: 5.35 U
  dp/dt: rate of pressure increase in the left ventricle: 2231.2 mm.Hg/sec.
